Reference: PubChem BioAssay AID588413 (Sanford-Burnham Center for Chemical Genomics, 2011)
The list shows a part of the results, in another mix than the full data. The source made the active and inactive calls.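 How the source made its calls: active means inhibition above about 55% (limit read from the data); inactive means the rest.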

Experiment: Gli-Sufu pathway antagonists, primary screen, luciferase luminescence, Sufu-KO-LIGHT cells, uHTS (AID 588413);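 further: 0% = DMSO-treated cells and 100% = wells with medium but no cells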
Details: Sufu-KO-LIGHT fibroblasts, Gli luciferase reporter luminescence; at 5 µM; active compounds read high

SMILES	inhibition
COc1cc(OC)cc(C(=O)NCC2(N3CCCCC3)CCCCC2)c1	inactive: 14.5%
CC(=O)N(c1ccccc1)C1CCNCC1	inactive: 2.37%
CCOC(=O)N1CCC(Nc2cccc(C)c2)CC1	inactive: -0.16%
COc1cc(C(=O)NCC2(N(C)C)CCCCC2)ccc1OC(F)F	inactive: 16.1%
O=P1(N(CCCl)CCCl)SCCCS1	inactive: -0.79%
CCCCOc1ccc(C(=O)NCC2(N3CCOCC3)CCCCC2)cc1	inactive: 34.7%
O=C(NCC1(N2CCCCC2)CCCCC1)c1ccc(F)cc1	inactive: 2.88%
COc1ccc(NC2CCN(CCc3ccccc3)CC2)c(OC)c1	inactive: 4.14%
CCOC(=O)N1CCC(Nc2ccc(F)cc2)CC1	inactive: -1.79%
CCOc1ccc(C)cc1CN(CCCl)CCCl	inactive: 4.57%
O=C1CCN(Cc2ccccc2)CC1	inactive: 1.05%
CCOC(=O)N1CCC(Nc2ccc(OC)cc2)CC1	inactive: -7.55%
N#CC1(Nc2ccccc2)CCN(Cc2ccccc2)CC1	inactive: 1.37%
O=C(NCC1(N2CCCCC2)CCCCC1)c1ccc(Cl)s1	inactive: 15.1%
O=C(OC1CN2CCC1CC2)C1c2ccccc2Oc2ccccc21 (stereo not given)	inactive: 14.8%
COc1ccc(Cl)cc1C(=O)NCC1(N2CCOCC2)CCCCC1	inactive: 10.1%
O=C(NCC1(N2CCOCC2)CCCCC1)c1cc2ccccc2o1	inactive: -2.19%
O=C(NCC1(N2CCCCC2)CCCCC1)c1ccc(Cl)nc1	inactive: 9.6%
Cc1cc(C)cc(N(C(=O)c2ccccc2)C2CCN(C(=O)OC(C)(C)C)CC2)c1	inactive: 14.3%
CSc1ccccc1C(=O)NCC1(N2CCCCC2)CCCCC1	inactive: 25.8%
Cc1cccc(NC2(C#N)CCN(Cc3ccccc3)CC2)c1	inactive: 0.2%
O=C(NCC1(N2CCCCC2)CCCCC1)c1ccc(=O)[nH]c1	inactive: 19%
O=C(NCC1(N2CCCCC2)CCCCC1)c1cccs1	inactive: 6.12%

SMILES	inhibition
COc1ccc(C(=O)NCC2(N3CCCCC3)CCCCC2)cc1	inactive: 13%
COc1ccc(C(=O)NCC2(N3CCCCC3)CCCCC2)c(OC)c1OC	inactive: 23.2%
CC(C)(C)OC(=O)N1CCC(N(C(=O)c2ccccc2)c2ccc(F)cc2)CC1	inactive: 0.87%
CCCOc1ccc(C(=O)NCC2(N(C)C)CCCCC2)cc1OC	inactive: 17%
CN1CCC(Nc2cccc(F)c2)CC1	inactive: -11.9%
O=C(NCC1(N2CCCCC2)CCCCC1)c1cncc(Br)c1	inactive: 16.1%
COc1cc(OC)c(C(=O)NCC2(N(C)C)CCCCC2)cc1OC	inactive: 2.79%
O=C(NCC1(N2CCOCC2)CCCCC1)c1cc(F)c(F)cc1Cl	inactive: -1.62%
COc1ccc(CN(CCCl)CCCl)cc1Cl	inactive: 12.7%
CN(C)c1cccc(C(=O)NCC2(N3CCCCC3)CCCCC2)c1	inactive: 30.5%
CC(C)c1ccc(NC2CCN(C(=O)OC(C)(C)C)CC2)cc1	inactive: -48%
CN1CCN(CCOC(=O)C(O)(c2ccccc2)c2ccccc2)CC1	inactive: 3.69%
COc1ccc(NC2CCN(C(=O)OC(C)(C)C)CC2)cc1	inactive: -12.2%
CC(C)c1ccc(C(=O)NCC2(N3CCOCC3)CCCCC2)cc1	inactive: 19.4%
COc1cc(C(=O)NCC2(N3CCCCC3)CCCCC2)ccc1OC(F)F	inactive: 37.7%
O=C(NCC1(N2CCOCC2)CCCCC1)c1cc(=O)[nH]c2ccccc12	inactive: 10.9%
O=C(NCC1(N2CCCCC2)CCCCC1)c1cccc(C(F)(F)F)c1	inactive: 24.9%
CSc1ccc(C(=O)NCC2(N3CCOCC3)CCCCC2)cc1	inactive: 18.7%
O=C(NCC1(N2CCCCC2)CCCCC1)c1cccc([N+](=O)[O-])c1	inactive: 21.3%
CCN1CCC(Nc2ccc(Cl)cc2)CC1	inactive: -1.52%
N#CC1(Nc2ccccc2)CCN(CCc2ccccc2)CC1	inactive: -17.2%
O=C(NCC1(N2CCCCC2)CCCCC1)c1ccc(OC(F)F)cc1	inactive: 34%
